Target: human GLP-1 receptor (human, UniProt P43220 24-463)
Assay: cell-based or functional assay

Amino acid sequences for entries named in this document (tags omitted). A change or cut given only in a name is not applied to a line headed by its entry.
UniProt P43220: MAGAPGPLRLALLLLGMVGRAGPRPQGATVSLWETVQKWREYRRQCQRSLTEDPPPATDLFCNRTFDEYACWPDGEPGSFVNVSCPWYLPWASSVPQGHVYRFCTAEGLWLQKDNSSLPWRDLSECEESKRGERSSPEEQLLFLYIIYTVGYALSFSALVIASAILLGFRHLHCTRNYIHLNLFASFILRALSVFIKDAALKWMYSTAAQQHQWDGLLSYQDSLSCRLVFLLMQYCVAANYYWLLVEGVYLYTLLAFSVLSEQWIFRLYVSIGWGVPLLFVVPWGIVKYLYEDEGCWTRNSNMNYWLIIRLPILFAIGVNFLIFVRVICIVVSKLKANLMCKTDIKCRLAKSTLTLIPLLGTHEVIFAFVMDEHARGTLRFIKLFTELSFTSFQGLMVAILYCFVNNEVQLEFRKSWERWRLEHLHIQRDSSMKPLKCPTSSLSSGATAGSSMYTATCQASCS

| Cyclic AMP-producing activity, relative to naturally occurring GLP-1 (=100%), at 1 × 10^-10 M [%] | Cyclic AMP-producing activity, relative to naturally occurring GLP-1 (=100%), at 1 × 10^-11 M [%] | Cyclic AMP-producing activity, relative to naturally occurring GLP-1 (=100%), at × 10^-9 M [%] | Binder |
| --- | --- | --- | --- |
| 101 | 7.4 | 78.1 | HAEGTFTSDVSSYLEGQAAKEFIAWLVKGRR (C-terminal amide (-NH2)) [GLP-1 (7-36)+Arg-NH2] |
| 91.9 | 72.3 | 112 | HAEGTFTSDVSSYLEGQAAKEFIAWLVKGRRR (C-terminal amide (-NH2)) [GLP-1 (7-36)+Arg-Arg-NH2] |

From patent US20060194720A1 (SANWA KAGAKU KENKYUSHO, published 2006)
